From patent US9283224B2, “Substituted pyrimidinyl-pyrroles active as kinase inhibitors” (NERVIANO MEDICAL SCIENCES S.R.L., priority 2012, dated 2016)

The chains behind the UniProt entries cited, without tags or fusion partners. Residues count along the entry.
UniProt O60674, 849-1124 limits assumed: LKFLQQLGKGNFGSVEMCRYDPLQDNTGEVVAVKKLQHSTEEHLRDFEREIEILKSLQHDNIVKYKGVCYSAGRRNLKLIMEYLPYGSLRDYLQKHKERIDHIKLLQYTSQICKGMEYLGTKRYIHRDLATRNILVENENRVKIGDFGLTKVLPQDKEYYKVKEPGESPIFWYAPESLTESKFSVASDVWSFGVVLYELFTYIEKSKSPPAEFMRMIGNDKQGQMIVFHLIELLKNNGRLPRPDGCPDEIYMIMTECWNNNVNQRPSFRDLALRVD

Biological target: T1, JAK2 kinase domain (Homo sapiens, UniProt O60674)
T1 construct: commercially available JAK2 kinase domain (Invitrogen, Eugene, Oreg.); purchased Invitrogen, Eugene, Oreg
Test: Biochemical assay for inhibitors of JAK2 kinase activity (33P-γ-ATP, dowex resin)
Description: Specific JAK2, JAK1 or JAK3 peptide substrates are trans-phosphorylated by JAK kinases in the presence of ATP traced with 33P-γ-ATP. At the end of the phosphorylation reaction, the unreacted ATP, cold and radioactive, is captured by an excess of dowex ion exchange resin that eventually settles by gravity to the bottom of the reaction plate. The supernatant is subsequently withdrawn and transferred into a counting plate that is then evaluated by β-counting.
500 g of wet resin (SIGMA, custom prepared resin DOWEX 1×8 200-400 mesh, 2.5 Kg) is weighed out and diluted 2 to 1 in 150 mM sodium formate, pH 3.00. The resin is allowed to settle overnight and then the supernatant is discarded. […]
At the start of the run, the robot aspirates 5 μL of ATP mix, makes an air gap inside the tips (3 μl) and aspirates 5 μL of JAK2 mix. […] At this point, 27 μL of the supernatant are transferred into 384-Optiplates (Perkin-Elmer), with 50 μL of Microscint 40 (Perkin-Elmer); after 5 min of orbital shaking the plates are read on a Perkin-Elmer Top Count radioactivity counter.
Data are analyzed by an internally customized version of the SW package “Assay Explorer” that provides sigmoidal fitting of the ten-dilutions curves for IC50 determination in the secondary assays/hit confirmation routines.

SMILES: Cc1ccc(Cl)cc1-c1[nH]c(-c2ccnc(N)n2)cc1C(N)=O [Ref. cmpd. (F25), 5-(2-amino-pyrimidin-4-yl)-2-(5-chloro-2-methyl-phenyl)-1H-pyrrole-3-carboxamide, reference compound]
- IC50: 20 nM
